Target: RORc ligand binding domain (Homo sapiens (Human), UniProt P51449)
Experiment: In Vitro RORc Ligand Binding Assay
Details: radioligand 25-[3H]hydroxycholesterol

Chains of the proteins cited; added tags and fusions are not shown. Residues count along the entry.
UniProt P51449, 269-508: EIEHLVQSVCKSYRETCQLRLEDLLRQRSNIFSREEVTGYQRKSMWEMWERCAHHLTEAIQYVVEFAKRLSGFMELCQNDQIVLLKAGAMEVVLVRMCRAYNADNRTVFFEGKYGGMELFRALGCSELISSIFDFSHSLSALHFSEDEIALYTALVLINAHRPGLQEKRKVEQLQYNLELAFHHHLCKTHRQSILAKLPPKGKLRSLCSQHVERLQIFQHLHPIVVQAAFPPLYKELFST

Row | IC50 | Compound
1 | 4.5 nM | CCN(C[C@@]12CC[C@@H](c3cc(-c4c(F)cccc4F)nnc31)C2(C)C)C(=O)c1ccc(CS(C)(=O)=O)nn1 [Compound 188, N-[[(1S,8R)-5-(2,6-difluorophenyl)-11,11-dimethyl-3,4-diazatricyclo[6.2.1.02,7]undeca-2,4,6-trien-1-yl]methyl]-N-ethyl-6-(methylsulfonylmethyl)pyridazine-3-carboxamide]
2 | 15.5 nM | CCN(C[C@@]12CC[C@@H](c3cc(-c4c(F)cccc4F)nnc31)C2(C)C)C(=O)c1ccc(S(=O)(=O)NC)cc1 [Compound 68, N-(((5R,8S)-3-(2,6-difluorophenyl)-9,9-dimethyl-5,6,7,8-tetrahydro-5,8-methanocinnolin-8-yl)methyl)-N-ethyl-4-(N-methylsulfamoyl)benzamide]
3 | 33.1 nM | CCN(C[C@@]12CC[C@@H](c3cc(-c4c(F)cccc4F)nnc31)C2(C)C)C(=O)c1ccc(N2CCOCC2)cc1 [Compound 70, N-(((5R,8S)-3-(2,6-difluorophenyl)-9,9-dimethyl-5,6,7,8-tetrahydro-5,8-methanocinnolin-8-yl)methyl)-N-ethyl-4-morpholinobenzamide]
4 | 74.2 nM | CCN(C[C@@]12CC[C@@H](c3cc(-c4c(F)cccc4F)nnc31)C2(C)C)C(=O)Cn1ccc(=O)[nH]c1=O [Compound 55, N-(((5R,8S)-3-(2,6-difluorophenyl)-9,9-dimethyl-5,6,7,8-tetrahydro-5,8-methanocinnolin-8-yl)methyl)-2-(2,4-dioxo-3,4-dihydropyrimidin-1(2H)-yl)-N-ethylacetamide]
5 | 24.1 nM | CCN(C[C@@]12CC[C@@H](c3cc(-c4c(F)cccc4F)nnc31)C2(C)C)S(=O)(=O)c1cccnc1 [Compound 132, N-(((5R,8S)-3-(2,6-difluorophenyl)-9,9-dimethyl-5,6,7,8-tetrahydro-5,8-methanocinnolin-8-yl)methyl)-N-ethylpyridine-3-sulfonamide]
6 | 21.3 nM | CCN(C[C@@]12CC[C@@H](c3cc(-c4c(F)cccc4F)nnc31)C2(C)C)C(=O)c1ccc(NC(C)=O)cc1 [Compound 62, 4-acetamido-N-(((5R,8S)-3-(2,6-difluorophenyl)-9,9-dimethyl-5,6,7,8-tetrahydro-5,8-methanocinnolin-8-yl)methyl)-N-ethylbenzamide]
7 | 11 nM | CCN(C[C@@]12CC[C@@H](c3cc(-c4c(F)cccc4F)nnc31)C2(C)C)S(=O)(=O)c1cn(C(F)F)nc1C [Compound 135, 1-(difluoromethyl)-N-(((5R,8S)-3-(2,6-difluorophenyl)-9,9-dimethyl-5,6,7,8-tetrahydro-5,8-methanocinnolin-8-yl)methyl)-N-ethyl-3-methyl-1H-pyrazole-4-sulfonamide]
8 | 9.4 nM | Cc1cc(C(=O)N(CCF)C[C@@]23CC[C@@H](c4cc(-c5c(F)cccc5F)nnc42)C3(C)C)no1 [Compound 8, N-(((5R,8S)-3-(2,6-difluorophenyl)-9,9-dimethyl-5,6,7,8-tetrahydro-5,8-methanocinnolin-8-yl)methyl)-N-(2-fluoroethyl)-5-methylisoxazole-3-carboxamide]
9 | 15 nM | CCN(C[C@@]12CC[C@@H](c3cc(-c4c(F)cccc4F)nnc31)C2(C)C)C(=O)CN1CC(O)C1 [Compound 209, N-[[(1 S,8R)-5-(2,6-difluorophenyl)-11,11-dimethyl-3,4-diazatricyclo[6.2.1.02,7]undeca-2,4,6-trien-1-yl]methyl]-N-ethyl-2-(3-hydroxyazetidin-1-yl)acetamide]
10 | 93.7 nM | CCN(C[C@@]12CC[C@@H](c3cc(-c4c(F)cccc4F)nnc31)C2(C)C)C(=O)c1ccc(CC#N)nn1 [Compound 178, 6-(cyanomethyl)-N-(((5R,8S)-3-(2,6-difluorophenyl)-9,9-dimethyl-5,6,7,8-tetrahydro-5,8-methanocinnolin-8-yl)methyl)-N-ethylpyridazine-3-carboxamide]
11 | 51.3 nM | CC1(C)[C@H]2CC[C@]1(CN(CC(F)F)C(=O)c1cccc(O)n1)c1nnc(-c3c(F)cccc3F)cc12 [Compound 17, N-(2,2-difluoroethyl)-N-(((5R,8S)-3-(2,6-difluorophenyl)-9,9-dimethyl-5,6,7,8-tetrahydro-5,8-methanocinnolin-8-yl)methyl)-6-hydroxypicolinamide]
12 | 479 nM | CN(C(=O)OCc1ccccc1)[C@]12CC[C@H](c3cc(-c4c(F)cccc4F)nnc31)C2(C)C [Compound 5, benzyl ((5S,8S)-3-(2,6-difluorophenyl)-9,9-dimethyl-5,6,7,8-tetrahydro-5,8-methanocinnolin-8-yl)(methyl)carbamate]
13 | 72.9 nM | CCN(C[C@@]12CC[C@@H](c3cc(-c4c(F)cccc4F)nnc31)C2(C)C)C(=O)c1nn(C)cc1-c1ccno1 [Compound 93, N-(((5R,8S)-3-(2,6-difluorophenyl)-9,9-dimethyl-5,6,7,8-tetrahydro-5,8-methanocinnolin-8-yl)methyl)-N-ethyl-4-(isoxazol-5-yl)-1-methyl-1H-pyrazole-3-carboxamide]
14 | 37.7 nM | CCN(C[C@@]12CC[C@@H](c3cc(-c4c(F)cccc4F)nnc31)C2(C)C)C(=O)CCC1NC(=O)NC1=O (stereo partly drawn) [Compound 54, N-(((5R,8S)-3-(2,6-difluorophenyl)-9,9-dimethyl-5,6,7,8-tetrahydro-5,8-methanocinnolin-8-yl)methyl)-3-(2,5-dioxoimidazolidin-4-yl)-N-ethylpropanamide]
15 | 9.2 nM | CCN(C[C@@]12CC[C@@H](c3cc(-c4c(F)cccc4F)nnc31)C2(C)C)S(=O)(=O)c1c(C)noc1C [Compound 116, N-(((5R,8S)-3-(2,6-difluorophenyl)-9,9-dimethyl-5,6,7,8-tetrahydro-5,8-methanocinnolin-8-yl)methyl)-N-ethyl-3,5-dimethylisoxazole-4-sulfonamide]
16 | 20.4 nM | CCN(C[C@@]12CC[C@@H](c3cc(-c4c(F)cccc4F)nnc31)C2(C)C)C(=O)c1cnc(C)cn1 [Compound 23, N-(((5R,8S)-3-(2,6-difluorophenyl)-9,9-dimethyl-5,6,7,8-tetrahydro-5,8-methanocinnolin-8-yl)methyl)-N-ethyl-5-methylpyrazine-2-carboxamide]
17 | 6.9 nM | CCN(C[C@@]12CC[C@@H](c3cc(-c4c(F)cccc4F)nnc31)C2(C)C)C(=O)c1ccc(-c2noc(C3CC3)n2)cc1 [Compound 98, 4-(5-cyclopropyl-1,2,4-oxadiazol-3-yl)-N-(((5R,8S)-3-(2,6-difluorophenyl)-9,9-dimethyl-5,6,7,8-tetrahydro-5,8-methanocinnolin-8-yl)methyl)-N-ethylbenzamide]
18 | 21.3 nM | CCN(C[C@@]12CC[C@@H](c3cc(-c4c(F)cccc4F)nnc31)C2(C)C)C(=O)c1cc[nH]n1 [Compound 83, N-(((5R,8S)-3-(2,6-difluorophenyl)-9,9-dimethyl-5,6,7,8-tetrahydro-5,8-methanocinnolin-8-yl)methyl)-N-ethyl-1H-pyrazole-3-carboxamide]
19 | 25.9 nM | CCN(C[C@@]12CC[C@@H](c3cc(-c4c(F)cccc4F)nnc31)C2(C)C)S(=O)(=O)c1cnoc1C [Compound 151, N-(((5R,8S)-3-(2,6-difluorophenyl)-9,9-dimethyl-5,6,7,8-tetrahydro-5,8-methanocinnolin-8-yl)methyl)-N-ethyl-5-methylisoxazole-4-sulfonamide]
20 | 12.1 nM | CCN(C[C@@]12CC[C@@H](c3cc(-c4c(F)cccc4F)nnc31)C2(C)C)C(=O)c1ccc(-c2ncccn2)cc1 [Compound 64, N-(((5R,8S)-3-(2,6-difluorophenyl)-9,9-dimethyl-5,6,7,8-tetrahydro-5,8-methanocinnolin-8-yl)methyl)-N-ethyl-4-(pyrimidin-2-yl)benzamide]
21 | 76.4 nM | CCN(C[C@@]12CC[C@@H](c3cc(-c4c(F)cccc4F)nnc31)C2(C)C)C(=O)CN1CCNC(=O)C1 [Compound 53, N-(((5R,8S)-3-(2,6-difluorophenyl)-9,9-dimethyl-5,6,7,8-tetrahydro-5,8-methanocinnolin-8-yl)methyl)-N-ethyl-2-(3-oxopiperazin-1-yl)acetamide]
22 | 42.8 nM | CCN(C[C@@]12CC[C@@H](c3cc(-c4c(F)cccc4F)nnc31)C2(C)C)C(=O)c1n[nH]c(=O)[nH]1 [Compound 46, N-(((5R,8S)-3-(2,6-difluorophenyl)-9,9-dimethyl-5,6,7,8-tetrahydro-5,8-methanocinnolin-8-yl)methyl)-N-ethyl-5-oxo-4,5-dihydro-1H-1,2,4-triazole-3-carboxamide]
23 | 9.1 nM | CCN(C[C@@]12CC[C@@H](c3cc(-c4c(F)cccc4F)nnc31)C2(C)C)S(=O)(=O)c1ccc(F)cc1F [Compound 122, N-(((5R,8S)-3-(2,6-difluorophenyl)-9,9-dimethyl-5,6,7,8-tetrahydro-5,8-methanocinnolin-8-yl)methyl)-N-ethyl-2,4-difluorobenzenesulfonamide]
24 | 70 nM | CCN(C[C@@]12CC[C@@H](c3cc(-c4c(F)cccc4F)nnc31)C2(C)C)C(=O)c1cccc(O)n1 [Compound 12, N-(((5R,8S)-3-(2,6-difluorophenyl)-9,9-dimethyl-5,6,7,8-tetrahydro-5,8-methanocinnolin-8-yl)methyl)-N-ethyl-6-hydroxypicolinamide]
25 | 5.5 nM | CCN(C[C@@]12CC[C@@H](c3cc(-c4c(F)cccc4F)nnc31)C2(C)C)C(=O)c1cc(C(F)(F)F)n(C)n1 [Compound 94, N-(((5R,8S)-3-(2,6-difluorophenyl)-9,9-dimethyl-5,6,7,8-tetrahydro-5,8-methanocinnolin-8-yl)methyl)-N-ethyl-1-methyl-5-(trifluoromethyl)-1H-pyrazole-3-carboxamide]
26 | 57 nM | CC1(C)[C@H]2CC[C@]1(CN(CC1CC1)C(=O)c1coc(CS(C)(=O)=O)n1)c1nnc(-c3c(F)cccc3F)cc12 [Compound 183, N-(cyclopropylmethyl)-N-[[(1S,8R)-5-(2,6-difluorophenyl)-11,11-dimethyl-3,4-diazatricyclo[6.2.1.02,7]undeca-2(7),3,5-trien-1-yl]methyl]-2-(methylsulfonylmethyl)oxazole-4-carboxamide]
27 | 24.3 nM | CCN(C[C@@]12CC[C@@H](c3cc(-c4c(F)cccc4F)nnc31)C2(C)C)C(=O)c1ccc(Cn2nnnc2C)cc1 [Compound 69, N-(((5R,8S)-3-(2,6-difluorophenyl)-9,9-dimethyl-5,6,7,8-tetrahydro-5,8-methanocinnolin-8-yl)methyl)-N-ethyl-4-((5-methyl-1H-tetrazol-1-yl)methyl)benzamide]

Reference: US10280144B2, “Pyridazine derivatives as RORc modulators” (Genentech, Inc., priority 2015, dated 2019)
